According to patent US6673827B1, “Methods of treating fungal infections with inhibitors of NAD synthetase enzyme” (priority 1999, dated 2004):

Test system: Candida albicans (ATCC 10231)
Experiment: Minimum Inhibitory Concentration (MIC) against yeast, broth dilution
Assay type: cell-based
Conditions: ATCC10231, 20 h, read-out: MIC Candida albicans (ATCC 10231)

## COC(=O)c1cc2cc(OCc3ccccc3)ccc2n1CCCCCCCCC[n+]1ccccc1 [Compound 230]
  MIC: 0.78 µg/mL
